Earlier results, collected in publication PMC5881571 (Alzheimer's & dementia : the journal of the Alzheimer's …, 2017).

Biological target: soluble Aβ40

- Kd: 89 nM
Substance: bapineuzumab: a humanized monoclonal Aβ antibody
